Target: rCYP2C19 (Homo sapiens, UniProt P33261)
Test: luminogenic P450-Glo CYP450 inhibition assay, rCYP2C19
Conditions: Median IC50 (Range) rCYP2C19, median (range), three independent experiments

Amino acid sequences for entries named in this document (tags omitted).
UniProt P33261, whole entry: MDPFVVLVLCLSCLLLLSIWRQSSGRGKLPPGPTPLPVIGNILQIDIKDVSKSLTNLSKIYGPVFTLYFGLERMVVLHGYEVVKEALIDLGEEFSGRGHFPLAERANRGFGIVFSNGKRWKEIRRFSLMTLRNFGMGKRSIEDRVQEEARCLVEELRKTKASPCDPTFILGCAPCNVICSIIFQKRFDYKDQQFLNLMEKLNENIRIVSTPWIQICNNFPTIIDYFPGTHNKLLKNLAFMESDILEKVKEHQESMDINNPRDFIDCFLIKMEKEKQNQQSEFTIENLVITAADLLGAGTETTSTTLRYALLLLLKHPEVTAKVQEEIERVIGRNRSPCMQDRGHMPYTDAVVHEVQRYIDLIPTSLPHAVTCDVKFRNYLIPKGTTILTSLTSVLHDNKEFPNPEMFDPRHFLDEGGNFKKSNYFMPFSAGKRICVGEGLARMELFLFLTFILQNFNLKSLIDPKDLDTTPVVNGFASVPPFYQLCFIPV

Cc1c(C)c2c(c(C)c1O)CCC(C)(COc1ccc(CC3SC(=O)NC3=O)cc1)O2 (stereo not shown) [Troglitazone, reference compound]
IC50: 2070 nM
